Assay results: publication PMC12399242 (Acta Pharmaceutica Sinica. B, 2025)

Biological target: WT HIV-1 RT (Human immunodeficiency virus type 1 group M subtype B, UniProt P03366)
Experiment: Inhibition of WT HIV-1 RT polymerase activity

Cc1cc(C#N)cc(C)c1Oc1nc(Nc2ccc(C#N)cc2)nc(N)c1Br [ETR, etravirine, reference compound]
IC50: 30 ± 4.6 nM
